Here are results for 1 compound from paper PMC7533260, “Design and tests of prospective property predictions for novel antimalarial 2-aminopropylaminoquinolones” (Journal of Computer-Aided Molecular Design, 2020).

Each structure is given as a SMILES string. pKi: −log10 of the molar value.

The assay concerns the target T1, s-PfDHODH (Plasmodium falciparum, UniProt Q08210).
T1 sequence (Q08210 158-569 limits assumed): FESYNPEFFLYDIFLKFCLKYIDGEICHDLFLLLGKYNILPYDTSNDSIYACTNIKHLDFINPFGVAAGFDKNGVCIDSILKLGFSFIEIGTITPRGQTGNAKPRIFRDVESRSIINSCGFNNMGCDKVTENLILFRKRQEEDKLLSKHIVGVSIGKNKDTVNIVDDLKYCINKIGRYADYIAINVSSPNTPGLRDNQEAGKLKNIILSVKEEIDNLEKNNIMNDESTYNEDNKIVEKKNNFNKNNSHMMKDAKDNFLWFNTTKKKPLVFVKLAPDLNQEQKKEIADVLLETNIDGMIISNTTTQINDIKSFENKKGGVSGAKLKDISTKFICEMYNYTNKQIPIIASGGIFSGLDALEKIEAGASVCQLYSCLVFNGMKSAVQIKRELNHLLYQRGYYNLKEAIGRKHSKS
Briefly: Literature inhibition data for soluble recombinant PfDHODH (s-PfDHODH), dodecylubiquinone as substrate. It is filed as biochemical.

What is called pKi is −log10 of the Ki, conventionally taken in molar units.

On to `Cc1cc(Nc2ccc3ccccc3c2)n2ncnc2n1` [Tz07], for which the pKi is 7.70.
